Source: US10799529B2, “Composition for preventing or treating spinal cord injury comprising imidazole-poly(organophosphazene) hydrogel” (priority 2018, dated 2020)
Counter-ions that a name gives are not always drawn.

Chains of the proteins cited; added tags and fusions are not shown.
UniProt P70174, whole entry: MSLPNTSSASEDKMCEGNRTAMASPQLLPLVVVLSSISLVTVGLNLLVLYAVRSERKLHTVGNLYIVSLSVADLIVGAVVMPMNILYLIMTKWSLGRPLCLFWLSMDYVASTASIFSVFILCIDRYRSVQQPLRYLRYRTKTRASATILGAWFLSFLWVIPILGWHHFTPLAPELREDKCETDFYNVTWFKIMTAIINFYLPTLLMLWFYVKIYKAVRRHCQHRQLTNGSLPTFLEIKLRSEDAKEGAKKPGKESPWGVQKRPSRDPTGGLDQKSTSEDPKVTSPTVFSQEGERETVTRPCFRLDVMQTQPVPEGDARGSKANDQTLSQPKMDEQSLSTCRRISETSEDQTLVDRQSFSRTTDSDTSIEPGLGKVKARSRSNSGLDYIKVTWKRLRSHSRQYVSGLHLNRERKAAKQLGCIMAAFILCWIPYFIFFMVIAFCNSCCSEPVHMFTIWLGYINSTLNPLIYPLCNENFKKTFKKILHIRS

Biological target: histamine receptor 1 (H1) (Mus musculus, UniProt P70174)
Details: 20 μM, 30 minutes before I-5 nanoparticles

- red fluorescence in macrophages after H1R inhibitor pretreatment: lower
Compound: COc1ccc(CN(CCN(C)C)c2ccccn2)cc1 [mepyramine, mepyramine maleate]
